Results published in patent publication US7501418B2, “Fused heterocyclic isoxazoline derivatives and their use as anti-depressants” (Janssen Pharmaceutica, N.V., priority 2002, dated 2009).

Amino acid sequences for entries named in this document (tags omitted).
UniProt P18089, whole entry: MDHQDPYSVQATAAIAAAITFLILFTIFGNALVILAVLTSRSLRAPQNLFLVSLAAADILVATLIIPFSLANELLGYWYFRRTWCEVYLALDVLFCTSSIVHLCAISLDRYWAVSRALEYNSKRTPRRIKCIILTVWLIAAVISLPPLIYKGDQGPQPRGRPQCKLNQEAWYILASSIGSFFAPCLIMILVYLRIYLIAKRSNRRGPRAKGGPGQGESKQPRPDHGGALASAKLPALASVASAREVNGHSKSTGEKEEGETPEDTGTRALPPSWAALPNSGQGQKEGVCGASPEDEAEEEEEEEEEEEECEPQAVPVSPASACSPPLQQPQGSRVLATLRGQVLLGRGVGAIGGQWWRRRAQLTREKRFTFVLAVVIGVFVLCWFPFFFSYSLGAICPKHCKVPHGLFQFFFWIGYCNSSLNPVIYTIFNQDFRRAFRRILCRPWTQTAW
UniProt P31645, whole entry: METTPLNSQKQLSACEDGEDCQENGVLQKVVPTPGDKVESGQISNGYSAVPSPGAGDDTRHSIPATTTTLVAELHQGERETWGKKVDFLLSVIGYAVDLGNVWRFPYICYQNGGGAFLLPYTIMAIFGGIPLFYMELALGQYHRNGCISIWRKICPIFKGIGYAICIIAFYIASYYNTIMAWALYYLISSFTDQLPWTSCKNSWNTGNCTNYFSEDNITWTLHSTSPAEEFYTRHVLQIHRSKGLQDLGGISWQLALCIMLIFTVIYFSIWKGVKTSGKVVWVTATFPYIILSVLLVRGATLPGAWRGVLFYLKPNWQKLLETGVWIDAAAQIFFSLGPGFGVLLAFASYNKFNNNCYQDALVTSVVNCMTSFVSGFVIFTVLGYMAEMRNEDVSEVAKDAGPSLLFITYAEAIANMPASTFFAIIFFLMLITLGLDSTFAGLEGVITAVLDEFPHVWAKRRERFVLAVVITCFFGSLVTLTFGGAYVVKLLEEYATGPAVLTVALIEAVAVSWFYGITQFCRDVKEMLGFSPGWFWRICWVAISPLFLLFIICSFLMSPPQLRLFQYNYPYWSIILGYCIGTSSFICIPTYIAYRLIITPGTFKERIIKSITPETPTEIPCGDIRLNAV
UniProt P18825, whole entry: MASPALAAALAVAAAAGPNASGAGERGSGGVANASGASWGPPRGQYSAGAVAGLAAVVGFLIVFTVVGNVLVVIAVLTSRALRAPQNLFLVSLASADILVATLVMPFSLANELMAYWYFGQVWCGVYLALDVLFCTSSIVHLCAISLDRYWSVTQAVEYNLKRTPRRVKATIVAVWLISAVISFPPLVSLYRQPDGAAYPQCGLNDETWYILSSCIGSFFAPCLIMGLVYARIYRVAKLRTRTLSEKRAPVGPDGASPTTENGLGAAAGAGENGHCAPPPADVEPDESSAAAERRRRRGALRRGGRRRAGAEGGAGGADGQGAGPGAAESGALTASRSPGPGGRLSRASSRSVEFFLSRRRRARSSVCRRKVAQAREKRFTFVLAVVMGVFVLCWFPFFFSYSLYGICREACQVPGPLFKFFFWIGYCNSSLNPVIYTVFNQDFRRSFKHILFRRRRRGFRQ
UniProt P08913, whole entry: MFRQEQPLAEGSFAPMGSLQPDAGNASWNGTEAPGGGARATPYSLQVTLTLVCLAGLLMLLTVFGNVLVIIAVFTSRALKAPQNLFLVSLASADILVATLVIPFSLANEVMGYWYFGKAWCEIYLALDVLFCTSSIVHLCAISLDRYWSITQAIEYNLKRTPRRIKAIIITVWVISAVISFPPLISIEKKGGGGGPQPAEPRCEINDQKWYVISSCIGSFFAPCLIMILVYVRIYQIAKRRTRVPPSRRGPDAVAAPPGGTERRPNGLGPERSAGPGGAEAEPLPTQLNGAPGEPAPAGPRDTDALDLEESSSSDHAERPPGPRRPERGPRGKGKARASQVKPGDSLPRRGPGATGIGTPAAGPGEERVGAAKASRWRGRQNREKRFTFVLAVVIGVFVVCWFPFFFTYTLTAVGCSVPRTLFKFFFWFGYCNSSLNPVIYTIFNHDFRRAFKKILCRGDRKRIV

Assays:
hα2B receptor = hα2B receptor (Homo sapiens, UniProt P18089); test: Radioligand binding experiment for α2B-adrenergic receptor ([3H]-raulwolscine); settings: CHO cell membranes with human α2B receptor, [3H]raulwolscine 1 nM
Experimental: In general, a low concentration of a radioligand with a high binding affinity for a particular receptor or transporter is incubated with a sample of a tissue preparation enriched in a particular receptor or transporter or with a preparation of cells expressing cloned human receptors in a buffered medium. During the incubation, the radioligand binds to the receptor or transporter. When equilibrium of binding is reached, the receptor bound radioactivity is separated from the non-bound radioactivity, and the receptor- or transporter-bound activity is counted. The interaction of the test compounds with the receptor is assessed in competition binding experiments. Various concentrations of the test compound are added to the incubation mixture containing the receptor- or transporter preparation and the radioligand. The test compound in proportion to its binding affinity and its concentration inhibits binding of the radioligand. […] Filter-bound radioactivity was determined by scintillation counting in a Topcount (Packard, Meriden, Conn.) and results were expressed as counts per minute (cpm). Non-specific binding was determined in the presence of 1 μM oxymetazoline for hα2A- and hα2B receptors and 1 μM spiroxatrine for hα2C receptors. Data from assays in the presence of compound were calculated as a percentage of total binding measured in the absence of test compound. […]

h5-HT transporter = h5-HT transporter (Homo sapiens, UniProt P31645); test: Radioligand binding experiment for 5-HT transporter ([3H]paroxetine); settings: human platelet membranes, [3H]paroxetine 0.5 nM
hα2C receptor = hα2C receptor (Homo sapiens, UniProt P18825); test: Radioligand binding experiment for α2C-adrenergic receptor ([3H]-raulwolscine); settings: CHO cell membranes with human α2C receptor, [3H]raulwolscine 1 nM
hα2A receptor = hα2A receptor (Homo sapiens, UniProt P08913); test: Radioligand binding experiment for α2A-adrenergic receptor ([3H]-raulwolscine); settings: CHO cell membranes with human α2A receptor, [3H]raulwolscine 1 nM
[1] = tested form: ethanedioate (oxalate) 1:2

Q: What does the source list for `COCCOCn1ccc2cc3c(cc21)OCC1C3=NOC1CN1CCN(C/C(C)=C/c2ccccc2)CC1` (centres unmarked)?
A: hα2B (pIC50) (hα2B receptor): 8.1; 5-HTT (pIC50) (h5-HT transporter): 8.7; hα2C (pIC50) (hα2C receptor): 9.1; hα2A (pIC50) (hα2A receptor): 8.1

Q: For `C/C(=C\CN1CCN(CC2ON=C3c4ncccc4OCC32)CC1)c1ccccc1` (centres unmarked), which “5-HTT (pIC50)” value (h5-HT transporter) is on record?
A: 6.2

Q: What about the “hα2C (pIC50)” value (hα2C receptor) of the same molecule?
A: 7.8

Q: And the “hα2A (pIC50)” value (hα2A receptor)?
A: 8.7

Q: Which results are given for `c1cnc2c(c1)OCC1C2=NOC1CN1CCN(Cc2ccc3ccccc3c2)CC1` (centres unmarked)?
A: 5-HTT (pIC50) (h5-HT transporter): 7.4; hα2C (pIC50) (hα2C receptor): 7.3; hα2A (pIC50) (hα2A receptor): 8.1

Q: `C/C(=C\c1ccccc1)CN1CCN(CC2ON=C3c4ncccc4OCC32)CC1` (centres unmarked) was tested. Which “5-HTT (pIC50)” value (h5-HT transporter; [1]) did it give?
A: 6.7

Q: And the “hα2C (pIC50)” value (hα2C receptor; [1])?
A: 8.4

Q: What about the “hα2A (pIC50)” value (hα2A receptor; [1]) of the same molecule?
A: 8.9

Q: `CCn1ccc2cc3c(cc21)OCC1C3=NOC1CN1CCN(C/C(C)=C/c2ccccc2)CC1` (centres unmarked) was tested. Which “hα2B (pIC50)” value (hα2B receptor) did it give?
A: 8.4

Q: And the “5-HTT (pIC50)” value (h5-HT transporter)?
A: 8.3

Q: And the “hα2C (pIC50)” value (hα2C receptor)?
A: 8.6

Q: And the “hα2A (pIC50)” value (hα2A receptor)?
A: 7.9
